{
  "sequences": {"note": "Protein sequences, listed by entry. Tags and fused reporters are not part of them. Residues count along the entry.", "UniProt Q01693, 107-405 limits assumed": "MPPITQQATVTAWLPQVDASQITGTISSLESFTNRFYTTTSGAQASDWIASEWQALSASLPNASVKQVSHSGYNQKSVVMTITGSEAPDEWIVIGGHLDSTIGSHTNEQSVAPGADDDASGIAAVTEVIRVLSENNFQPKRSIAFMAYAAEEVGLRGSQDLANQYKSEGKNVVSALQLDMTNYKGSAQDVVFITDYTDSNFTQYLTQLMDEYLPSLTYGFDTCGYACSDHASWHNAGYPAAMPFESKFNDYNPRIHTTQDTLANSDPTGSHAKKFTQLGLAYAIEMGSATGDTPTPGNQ"},
  "source": "patent US10877035B2",
  "about": "“Advanced drug development and manufacturing” (ICAGEN, LLC, priority 2006, dated 2020)",
  "origin": "cited, not measured here",
  "target": "di-zinc aminopeptidase (aAP) (Vibrio proteolyticus, UniProt Q01693)",
  "details": "pH 8.0, competitive inhibitor; cited from earlier work",
  "data": [
    {"substance": "leucine phosphonic acid [LPA]", "values": [
      {"measurement": "Ki", "result": 6.6, "unit": "µM"}
    ]}
  ]
}
